Results reported in ChEMBL document CHEMBL4387758, “Discovery and Biological evaluation of pyrimido[4,5-d]pyrimidine-2,4(1H,3H)-dione derivatives as potent Bruton's tyrosine kinase inhibitors” (Bioorg Med Chem, 2019).

Species: Homo sapiens
Assay: Selectivity ratio of IC50 for inhibition of EGFR (unknown origin) to IC50 for inhibition of BTK (unknown origin)

Work on `C=CC(=O)Nc1cccc(-n2c(=O)n(C(C)C)c(=O)c3cnc(Nc4ccc(N5CCN(C)CC5)c(OC)c4)nc32)c1` yielded a Ratio IC50 of 99.
